Test system: IgM in human heart biopsies
Test: Displacement (elution) of IgM from human heart transplant biopsies
Type: binding
Conditions: for vascular IgM in biopsy after incubation (immunohistochemistry): displacement experiments
Experimental: This IgM biopsy removal was also confirmed immunohistochemically (FIG. 12).
Serum IgM anti-PC NAbs was evaluated using ELISA (ADI, San Antonio, Tex.). To confirm that IgM within the heart microvessels is directed to PC, the antibodies were eluted from the heart tissue samples and measured the eluates in specific ELISAs (ADI, San Antonio, Tex.). The presence of increased inflammation was determined immunohistochemically with antibodies to CRP and ICAM-1. Reduced thrombosis was identified using antibodies to fibrin, antithrombin, and tissue plasminogen activator. MΦ phenotypes were also assessed with 4-color immunohistochemistry and M1 and M2 MΦs characterized with antibodies to TNF/IL-1/CCR2/IL-12/23 and CD163/IL-10/CD206, respectively.
IgM from heart biopsies was removed using PC (50 mM), CRP (2.58 mg/ml) or albumin (1 mg/ml) concentrations proven to be effective in preliminary studies (see FIG. 11). To verify if the IgM removed from the heart biopsies is PC-specific, ELISA was performed.
One hundred and seventy-two (172) adult heart transplant patients (having a number of serial biopsies per patient in first three months post-transplant) were followed for several years and subsequently analyzed. CAV was diagnosed with serial angiographies for each patient. The percentage of microvascular IgM was quantified with double staining (IgM/CD31 or Ulex europaeus lectin). IgM and IgM anti-phosphorylcholine (PC) from biopsy eluates were determined with immunoblotting and enzyme-linked immunosorbent assays (ELISAs). Statistical analyses used univariate logistic regression, multivariate stepwise models, and Kaplan-Meier curves for different tertile groups.

removal of IgM from heart biopsies by incubation (PC 50 mM, CRP 2.58 mg/ml, albumin 1 mg/ml): not
vascular IgM in biopsy after incubation (immunohistochemistry): presence of vascular IgM
vascular IgM in biopsy after incubation (immunohistochemistry) (listed as albumin): not
IgM anti-PC in biopsy eluates (ELISA) (eluates after incubation of biopsies): 0.0±0.0 U/ml
Substance: human albumin: control protein in IgM displacement experiments
IgM in western blots of biopsy eluates (following incubation of biopsies): not
